These results are taken from US10087148B2, “Quinazolines as biogenic amine transport modulators” (THE UNITED STATES OF AMERICA AS REPRESENTED BY THE …, priority 2014, dated 2018).

Sequences of proteins named here, by UniProt entry; tags and fusion partners are left off. Residues count along the entry.
UniProt Q63380, 1-617: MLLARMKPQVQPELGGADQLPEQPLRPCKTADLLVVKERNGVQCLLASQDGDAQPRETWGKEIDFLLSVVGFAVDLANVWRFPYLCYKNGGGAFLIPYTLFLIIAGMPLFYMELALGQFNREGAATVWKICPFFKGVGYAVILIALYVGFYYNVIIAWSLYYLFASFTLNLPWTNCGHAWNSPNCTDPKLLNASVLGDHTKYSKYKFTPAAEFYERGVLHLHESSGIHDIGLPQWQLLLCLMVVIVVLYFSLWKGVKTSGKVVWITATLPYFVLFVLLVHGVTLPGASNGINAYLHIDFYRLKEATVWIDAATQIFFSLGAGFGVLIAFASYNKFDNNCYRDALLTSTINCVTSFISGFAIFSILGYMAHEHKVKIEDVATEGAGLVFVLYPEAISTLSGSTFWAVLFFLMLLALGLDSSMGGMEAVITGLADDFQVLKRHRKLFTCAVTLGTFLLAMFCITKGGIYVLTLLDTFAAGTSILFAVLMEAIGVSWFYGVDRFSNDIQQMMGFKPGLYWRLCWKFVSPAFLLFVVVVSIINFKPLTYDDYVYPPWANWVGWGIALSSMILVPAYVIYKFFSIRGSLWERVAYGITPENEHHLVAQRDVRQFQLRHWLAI
UniProt P31652, whole entry: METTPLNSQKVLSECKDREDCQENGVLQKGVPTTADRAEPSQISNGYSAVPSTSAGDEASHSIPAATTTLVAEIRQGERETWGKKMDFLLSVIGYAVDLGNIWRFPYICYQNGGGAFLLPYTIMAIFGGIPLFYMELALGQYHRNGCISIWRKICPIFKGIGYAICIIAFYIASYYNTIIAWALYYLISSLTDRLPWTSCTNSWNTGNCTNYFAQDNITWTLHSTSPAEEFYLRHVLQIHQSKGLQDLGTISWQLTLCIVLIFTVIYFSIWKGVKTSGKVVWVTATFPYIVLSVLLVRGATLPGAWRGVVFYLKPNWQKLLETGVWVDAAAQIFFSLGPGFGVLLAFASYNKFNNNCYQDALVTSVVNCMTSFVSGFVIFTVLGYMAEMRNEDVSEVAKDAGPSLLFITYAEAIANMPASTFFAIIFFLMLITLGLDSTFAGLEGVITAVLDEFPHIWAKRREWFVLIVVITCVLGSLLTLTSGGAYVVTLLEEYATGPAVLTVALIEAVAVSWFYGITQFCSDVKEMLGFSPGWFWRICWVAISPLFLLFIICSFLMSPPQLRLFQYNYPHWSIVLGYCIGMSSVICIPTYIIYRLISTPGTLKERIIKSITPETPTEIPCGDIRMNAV

Each structure is given as a SMILES string.

The target in experiment [1] is norepinephrine transporter (NET) (Rattus norvegicus, UniProt Q63380). Kind of experiment: [3H]norepinephrine (NE) uptake inhibition in rat brain synaptosomes. The class given is biochemical. Conditions: mean ± S.D.; n = 3. The protocol:
Uptake inhibition assay for the norepinephrine transporter was conducted in rat brain synaptosomes as described elsewhere with minor modifications (Rothman et al., Synapse 39, 32-41 (2001)). Freshly removed whole brain minus cerebellum and caudate was homogenized in 10% ice-cold sucrose with 12 strokes of a hand-held Potter-Elvehjem homogenizer followed by centrifugation at 1000×g for 10 minutes. The supernatants were saved on ice and used immediately. Transporter activity at NET was assessed using 10 nM [^3H]norepinephrine. The assay buffer was Krebs-phosphate buffer containing 154.4 mM NaCl, 2.9 mM KCl, 1.1 mM CaCl2, 0.83 mM MgCl2, 5 mM glucose, 1 mg/mL ascorbic acid, and 50 μM pargyline. […] Uptake inhibition assays were conducted at 37° C. and were initiated by adding 100 μL of tissue to 900 μL assay buffer containing test drug and [^3H]norepinephrine. Test drugs were diluted in assay buffer containing 1 mg/mL bovine serum albumin. Nonspecific uptake was measured by incubating in the presence of 10 μM indatraline. […] Filters were rinsed with 6 mL wash buffer and retained tritium was quantified by a MicroBeta liquid scintillation counter (PerkinElmer) after overnight extraction in 0.6 mL of liquid scintillation cocktail (Cytoscint, ICN). […]

In experiment [2] the target is serotonin transporter (SERT) (Rattus norvegicus (Rat), UniProt P31652). Kind of experiment: [3H]serotonin (5-HT) uptake inhibition in rat brain synaptosomes. Conditions: mean ± S.D.; n = 3. In kind it is biochemical. The protocol: Uptake inhibition assay for the serotonin transporter was conducted in rat brain synaptosomes as described elsewhere with minor modifications (Rothman et al., Synapse 39, 32-41 (2001)). Freshly removed whole brain minus cerebellum and caudate was homogenized in 10% ice-cold sucrose with 12 strokes of a hand-held Potter-Elvehjem homogenizer followed by centrifugation at 1000×g for 10 min. The supernatants were saved on ice and used immediately. Transporter activity at SERT was assessed using 5 nM [^3H]serotonin. The assay buffer was Krebs-phosphate buffer containing 154.4 mM NaCl, 2.9 mM KCl, 1.1 mM CaCl2, 0.83 mM MgCl2, 5 mM glucose, 1 mg/mL ascorbic acid, and 50 μM pargyline. […] Uptake inhibition assays were conducted at 25° C. and were initiated by adding 100 μL of tissue to 900 μL assay buffer containing test drug and [^3H]serotonin. Test drugs were diluted in assay buffer containing 1 mg/mL bovine serum albumin. Nonspecific uptake was measured by incubating in the presence of 10 μM indatraline. […] Filters were rinsed with 6 mL wash buffer and retained tritium was quantified by a MicroBeta liquid scintillation counter (PerkinElmer) after overnight extraction in 0.6 mL of liquid scintillation cocktail (Cytoscint, ICN). […]

A word on the IC50: it is the concentration at which inhibition is half-maximal. Low values mean higher potency, high ones lower potency. As to `COC(=O)[C@H]1[C@@H](OC(=O)c2ccccc2)C[C@@H]2CC[C@H]1N2C` [Cocaine, reference compound], the IC50 in experiment [1] was 329 ± 22 nM; in experiment [2] it was 273 ± 24 nM.
